Measurements: PubChem BioAssay AID827 (SRMLSC, 2007)
The entries are a selection whose mix differs from that of the whole data set. Activity calls are given as the source filed them.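 How the source made its calls: active means viability at or below a set limit, 4 SD under the median of all tested compounds (cut at about 3.7% in these data); inactive means the rest.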

Assay: growth suppression of PTEN-null HCT116, primary screen, cell-based, CellTiter-Glo (AID 827);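 further: PTEN knockout HCT116 line with beta catenin targeted HCT116 as companion control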
Conditions: 60 h, at 10 µM, stronger effect = lower value

SMILES	viability
CCOC(=O)c1ccc(NP(C)(=O)Oc2ccc(Cl)cc2)cc1 (stereo not drawn)	inactive: 103%
CP(=O)(OC12CC3CC(CC(C3)C1)C2)OC12CC3CC(CC(C3)C1)C2	inactive: 80.7%
CC(C)(C)c1ccc(OP(C)(=O)O)cc1	inactive: 87.9%
CP(=O)(Nc1ccc(Cl)cc1)Oc1ccc(F)cc1 (stereo not drawn)	inactive: 89.4%
CP(=O)(Oc1ccccc1)N1CCOC1=O (stereo not drawn)	inactive: 89.5%
COc1ccc(OP(C)(=O)Nc2ccc(Br)cc2)cc1 (stereo not drawn)	inactive: 89.4%
CCN(CC)CC(O)COC(=O)C(O)(c1ccccc1)C1CCCCC1 (stereo not drawn)	inactive: 90.8%
COc1ccccc1OP(C)(=O)Nc1ccc(C)cc1C (stereo not drawn)	inactive: 93.5%
CP(=O)(Nc1ccccn1)Oc1ccccc1 (stereo not drawn)	inactive: 111%
CCc1ccc(OP(C)(=O)O)cc1	inactive: 93.5%
Cc1c(NP(C)(=O)Oc2ccc(C(C)C)cc2)c(=O)n(-c2ccccc2)n1C (stereo not drawn)	inactive: 96%
COc1ccc(OP(C)(=O)Nc2ccccn2)cc1 (stereo not drawn)	inactive: 103%
CN(C)CCOC(=O)C(O)(c1ccccc1)C1CCCC1 (stereo not drawn)	inactive: 102%
COc1ccccc1OP(C)(=O)Nc1ccc(C)c(C)c1 (stereo not drawn)	inactive: 93.3%
COc1ccc(OP(C)(=O)Nc2ccccc2Br)cc1 (stereo not drawn)	inactive: 97.5%
CP(=O)(Nc1ccccc1)Oc1ccc(F)cc1 (stereo not drawn)	inactive: 89.8%
CCN(CC)CCCOC(=O)C(O)(c1ccccc1)C1CCCCC1 (stereo not drawn)	inactive: 98.1%
CCOC(=O)c1ccc(NP(C)(=O)Oc2ccc(F)cc2)cc1 (stereo not drawn)	inactive: 89.6%
O=C(OCCN1CCN(CCOCc2ccccc2)CC1)C(O)(c1ccccc1)c1ccccc1	inactive: 95.1%
CP(=O)(Nc1ccccc1F)Oc1ccccc1 (stereo not drawn)	inactive: 96.2%
CC(C)c1ccc(OP(C)(=O)Nc2ccc(SC(F)(F)F)cc2)cc1 (stereo not drawn)	inactive: 68.7%
Cc1ccccc1NP(C)(=O)Nc1ccccc1C	inactive: 87%
CP(=O)(Nc1ccc2c(c1)OCCO2)Oc1ccccc1 (stereo not drawn)	inactive: 109%
CCOP(C)(=S)SCC(=O)NC(C)(CC)C(=O)O (stereo not drawn)	inactive: 91.3%

SMILES	viability
CN(C)CCOC(=O)C(O)(c1ccccc1)C1CCCCC1 (stereo not drawn)	inactive: 102%
COc1ccc(OP(C)(=O)Nc2cccc(Br)c2)cc1 (stereo not drawn)	inactive: 96.2%
CP(=O)(Nc1ccc(SC(F)(F)F)cc1)Oc1ccccc1 (stereo not drawn)	inactive: 78%
CN1CCCCC1COC(=O)C1(O)c2ccccc2CCc2ccccc21 (stereo not drawn)	inactive: 78.8%
COc1ccccc1OP(C)(=O)Nc1c(C)cccc1C (stereo not drawn)	inactive: 101%
Cc1nc2ccc3ccccc3c2s1.O=[N+]([O-])c1cc([N+](=O)[O-])c(O)c([N+](=O)[O-])c1	inactive: 99.3%
Cc1ccc(C)c(NP(C)(=O)Oc2ccccc2)c1 (stereo not drawn)	inactive: 87.3%
Cc1cc(C)cc(OP(C)(=O)Nc2ccccn2)c1 (stereo not drawn)	inactive: 94%
CCOC(=O)c1ccc(NP(C)(=O)Oc2cc(C)cc(C)c2)cc1 (stereo not drawn)	inactive: 58.6%
Cc1cc(C)cc(OP(C)(=O)Nc2ccc(C)cc2C)c1 (stereo not drawn)	inactive: 84.8%
CC1=NCCc2c1[nH]c1ccccc21.O=[N+]([O-])c1cc([N+](=O)[O-])c(O)c([N+](=O)[O-])c1	inactive: 87.5%
COc1ccc(OP(C)(=O)Nc2cccc(F)c2)cc1 (stereo not drawn)	inactive: 97.7%
Cc1ccc(NP(C)(=O)Oc2ccccc2)c(C)c1 (stereo not drawn)	inactive: 97.2%
COc1ccccc1OP(C)(=O)Nc1ccc(C)cc1 (stereo not drawn)	inactive: 89.5%
CCOC(=O)c1ccc(NP(C)(=O)Oc2ccccc2)cc1 (stereo not drawn)	inactive: 92.6%
CC(C)(C)c1ccc(OP(C)(=O)Nc2ccc(SC(F)(F)F)cc2)cc1 (stereo not drawn)	inactive: 78.5%
CP(=O)(Nc1ccccn1)Oc1ccc(Cl)cc1 (stereo not drawn)	inactive: 101%
CCOC(=O)c1ccc(NP(C)(=O)Oc2ccc(OC)cc2)cc1 (stereo not drawn)	inactive: 95.7%
CCOP(C)(=S)SCC(=O)NC(C)C(=O)O (stereo not drawn)	inactive: 92.5%
Cc1cc(C)cc(OP(C)(=O)Nc2ccc(SC(F)(F)F)cc2)c1 (stereo not drawn)	inactive: 81.5%
CP(=O)(NC(=O)Nc1ccccc1)Oc1ccccc1 (stereo not drawn)	inactive: 91.6%
Cc1cccc(C)c1OP(C)(=O)Nc1ccc(SC(F)(F)F)cc1 (stereo not drawn)	inactive: 37.6%
CP(=O)(Nc1ccccc1Br)Oc1ccccc1 (stereo not drawn)	inactive: 96.9%
CP(=S)(Nn1cnnc1)Oc1ccccc1 (stereo not drawn)	inactive: 112%
